# Antibody variant affinities, Ab-14 heavy chain, assay B

Target peptide (SARS-CoV-2 spike, HR2 region): PDVDLGDISGINAS

The variants keep the light chain, the linker and the frameworks of Ab-14 (scFv order VH, a (GGGGS)3 linker, VL).
VH: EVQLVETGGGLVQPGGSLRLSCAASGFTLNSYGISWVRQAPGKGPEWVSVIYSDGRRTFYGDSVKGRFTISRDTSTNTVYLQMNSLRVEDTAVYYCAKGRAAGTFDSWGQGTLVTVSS
VL: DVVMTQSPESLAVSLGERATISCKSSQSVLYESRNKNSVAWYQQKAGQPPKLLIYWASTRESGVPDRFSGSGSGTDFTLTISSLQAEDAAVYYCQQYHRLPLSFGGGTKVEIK

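The starting antibody came from a phage panning campaign against this peptide. The variants were designed computationally from a first round of random CDR variants and then made and measured. Their group label is 14H_En_Gibbs (En: ensemble of fine-tuned language models; Gibbs: Gibbs sampling). AlphaSeq pools MATa yeast showing the antibodies with MATalpha yeast showing the peptide. Pairs that bind mate more often; barcode pairs of the diploids are counted by sequencing. The ratio of observed to expected reads was calibrated, replicate by replicate, on BCL2-family standards whose Kd was known from biolayer interferometry. The assay was run in six technical replicates.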

The parent's heavy chain CDRs are GFTLNSYGIS, VIYSDGRRTFYGDSVK, GRAAGTFDS; each variant's own CDRs replace them letter for letter. Affinities are written as log10 Kd with Kd in nM; a lower number is a better binder. The mean shown is taken over the replicates in which the pair was detected. Where no diploid with the target was found in that replicate, the entry reads "ND": below detection, most likely a poor binder, though not proof of it. The authors averaged sequences with at least three values out of six and counted those with two or fewer as poor binders. Values of this round are not directly comparable with the first-round values of the same sequences. Background: pairings of all heavy chain designs with three empty control strains gave a value in 1% of cases (median 2.08, 5th percentile 0.84). Values in that range, when seen in few replicates, are hard to tell from nonspecific mating. The control count says in how many pairings with the empty strains this scFv gave a signal, with their mean in brackets.

CDR-H1	CDR-H2	CDR-H3	log10 Kd, replicates	mean log10 Kd (nM)	control signals
GFNLQEYGVS	VIYADGIRTQYTNDVK	GLYSGAFVM	ND ND ND ND ND ND	ND	0/18
GNDLNEYGIS	VIYADGIRTNYSQNVK	GTNGDTFTQ	ND ND ND ND ND ND	ND	0/18
GFNIEEYGIS	VIYADGRRTAYAEPVK	GDSGGTIDT	ND ND ND ND ND ND	ND	0/18
GFSLDEYGIS	VIYADGVRQAYQDSVK	GNWHGTMMY	ND ND ND ND ND ND	ND	0/18
GFQLDEVGIS	VIYADGIRRAYASKVK	GGIGASFDL	ND ND ND ND ND ND	ND	0/18
GFDLGEYGVS	VIYADGKRTFYADHVK	GVNLGFFDT	ND ND ND ND ND ND	ND	2/18 (1.73)
GFQLDEYGIS	VIYADGNRTQYLENVK	GTNWGNVDL	ND ND ND ND ND ND	ND	0/18
GFDLGEYGIS	VIYADGERKSYAQKVK	GKNGAISYV	ND ND ND ND ND ND	ND	0/18
GKGLDEYGIS	VIYADGMRTEYVQSVK	GDTGSIKFV	ND ND ND ND ND ND	ND	0/18
GNSLQEYGIS	VIYADGMRNQYAQSVK	GMEAGVFVY	ND ND ND ND ND ND	ND	0/18
GMDLSEYGIS	VIYADGMRTYASDSVK	GDQGGNLLY	ND ND ND ND ND ND	ND	0/18
GFDIEEMGVS	VIYADGIRTAVSEDVK	GNVAGTGDF	-0.47 -0.48 -0.48 -1.10 -0.13 -0.11	-0.46	1/18 (2.92)
GDDLAEYGVS	VIYADGKRTKYSDHVK	GENGGFFDA	ND ND ND ND ND ND	ND	0/18
GFGLDEYGIS	VIYADGNRQMYTDNVK	GNNLMLVSV	ND ND ND ND ND ND	ND	0/18
GFNLDEYGIS	VIYADGVRKAYSSKVK	GKVWWFNLQ	ND ND ND ND ND ND	ND	0/18
GFSLDEYGIS	VIYADGVRQFYCDDVK	GGIAGTFLY	1.70 2.11 1.43 2.54 1.50 1.93	1.87	4/18 (3.09)
GFDLNEYGIS	VIYADGVRTAYLQNVK	GEVAGFDQY	ND ND ND ND ND ND	ND	0/18
GDALDEYGIS	VIYADGMRSSYSNDVK	GTNFGNKMV	ND ND ND ND ND ND	ND	0/18
GFDLNEYGIS	VIYADGRRQAVVQNVK	GKINVVDSV	ND ND ND ND ND ND	ND	0/18
GFSLNEYGIS	VIYADGTRTAYADSVK	GAYDTVAVL	ND ND ND ND ND ND	ND	0/18
GFTINEYGIS	VIYADGKRVEYNDKVK	GMLAGTFDQ	1.80 2.01 ND 2.70 3.19 1.92	2.32	1/18 (1.91)
GFDLGEYGVS	VIYADGHRAAYTDNVK	GVESGSIQN	ND ND ND ND ND ND	ND	0/18
GFDFDEYGIS	VIYADGIRQFYQDKVK	GEVTGMFDT	ND ND ND ND ND ND	ND	0/18
GFDIQEYGIS	VIYADGHRTAYTNKVK	GGISMISVT	ND ND ND ND ND ND	ND	0/18
GRDLDEYGIS	VIYADGTRKMYAPSFK	GEHGGTFLM	ND ND ND ND ND ND	ND	0/18
GFELDEYGIS	VIYADGKRKFYAQTVK	GKTDGMILD	ND ND ND ND ND ND	ND	0/18
GFDINEYGIS	VIYADGSRQAYADTVK	GSWGCVFYV	ND ND ND ND ND ND	ND	0/18
GMNLDEYGIS	VIYADGLRTEYANTVK	GEMAGFFML	ND ND ND ND ND ND	ND	0/18
GFDLDEQGIS	VIYADGQRKAYANQVK	GNQGNIART	-0.71 -0.53 -0.90 -0.51 -0.80 -0.54	-0.66	0/18
GMDLNEYGIS	VIYADGVRTKYANSVK	NGLVVNGKL	ND ND ND ND ND ND	ND	0/18
GFDLEKYGIS	VIYADGIRKEYDQSVK	GQNAGAFTV	ND ND ND 2.86 ND ND	2.86	0/18
GFGLDEYGIS	VIYADGMRANYATNVK	GYQAGVFST	ND ND ND ND ND ND	ND	0/18
GFQLDEYGIS	VIYADGMRTAYADSFK	GNKSTIIGI	ND ND ND ND ND ND	ND	0/18
GYSLDEYGIS	VIYADGVRQFYADDVK	GGIAGQVNY	ND ND ND ND ND ND	ND	0/18

Picked from the list: the 3 lowest averages where every replicate gave a value.

CDR-H1	CDR-H2	CDR-H3	log10 Kd, replicates	mean log10 Kd (nM)	control signals
GFDLDEQGIS	VIYADGQRKAYANQVK	GNQGNIART	-0.71 -0.53 -0.90 -0.51 -0.80 -0.54	-0.66	0/18
GFDIEEMGVS	VIYADGIRTAVSEDVK	GNVAGTGDF	-0.47 -0.48 -0.48 -1.10 -0.13 -0.11	-0.46	1/18 (2.92)
GFSLDEYGIS	VIYADGVRQFYCDDVK	GGIAGTFLY	1.70 2.11 1.43 2.54 1.50 1.93	1.87	4/18 (3.09)

Source: Li et al. 2023 (doi:10.1038/s41467-023-39022-2), MIT Lincoln Laboratory and A-Alpha Bio; data file from the FLAb repository.